Assay [1] addresses Carbonic anhydrase (Stylophora pistillata, UniProt B5SU02). Nature of the assay: Inhibition of Stylophora pistillata carbonic anhydrase by stopped-flow CO2 hydration assay.
Assay [2] deals with Carbonic anhydrase (Stylophora pistillata, UniProt C0IX24).

The structures appear in SMILES notation.

As for `[N-]=[N+]=N`, the values for the Ki at Carbonic anhydrase [1] and on Carbonic anhydrase [2] were 520 µM and 4680 µM, respectively.
